Source: paper PMC7547831 (Acta Pharmaceutica Sinica. B, 2020)

The chains behind the UniProt entries cited, without tags or fusion partners. Residues count along the entry.
UniProt Q9BYF1, 18-740: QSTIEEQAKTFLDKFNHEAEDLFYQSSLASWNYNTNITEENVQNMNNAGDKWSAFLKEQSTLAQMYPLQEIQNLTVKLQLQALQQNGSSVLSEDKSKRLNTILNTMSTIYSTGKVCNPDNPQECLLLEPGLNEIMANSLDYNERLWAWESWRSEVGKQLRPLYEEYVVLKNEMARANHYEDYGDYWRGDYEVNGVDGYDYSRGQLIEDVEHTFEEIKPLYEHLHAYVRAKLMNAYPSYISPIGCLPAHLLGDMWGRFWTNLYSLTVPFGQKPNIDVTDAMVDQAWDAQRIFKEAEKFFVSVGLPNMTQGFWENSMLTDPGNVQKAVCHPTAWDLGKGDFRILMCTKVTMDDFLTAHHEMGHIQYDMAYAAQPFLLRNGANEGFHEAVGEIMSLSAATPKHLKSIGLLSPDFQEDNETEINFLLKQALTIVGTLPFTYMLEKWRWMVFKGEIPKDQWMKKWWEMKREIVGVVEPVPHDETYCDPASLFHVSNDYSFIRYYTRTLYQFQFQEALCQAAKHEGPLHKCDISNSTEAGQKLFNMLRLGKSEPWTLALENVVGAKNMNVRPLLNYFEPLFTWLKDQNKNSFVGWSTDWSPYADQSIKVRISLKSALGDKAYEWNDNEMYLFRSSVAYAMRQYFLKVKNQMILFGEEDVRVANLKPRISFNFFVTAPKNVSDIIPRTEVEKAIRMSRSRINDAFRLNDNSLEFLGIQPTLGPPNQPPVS

Key:
ACE2 = ACE2 (Homo sapiens, UniProt Q9BYF1); experiment: SPR analysis of affinity to ACE2 recombinant protein; format: binding; settings: steady-state affinity model (1:1), 0.024 to 50 μmol/L
[1] = LHQW components in human plasma after repeated oral dosing; format: in vivo; settings: after repeated oral administration of LHQW capsule, semi-quantitative

Substance | Kd (ACE2) [µM] | Human in vivo exposure (in words) [1]
Forsythoside B [Forsythoside B (125)] | 61 | 
forsythin |  | higher human exposure
